{"source": "patent US4743619A", "about": "“Method of treating hepatitis” (American Home Products Corporation, priority 1986, dated 1988)", "origin": "cited, not measured here", "tested_on": "polymerase activity of the viron or Dane particle", "conditions": "nine patients, chronic hepatitis B, cited from earlier work"}
{"substance": "rINF-A: leukocyte A Interfereon (rINF-A or HuIFN-2), produced by recombinant DNA methods", "values": [{"measurement": "permanence of the change in polymerase activity", "value": "not permanent in any of the patients"}, {"measurement": "polymerase activity of the viron or Dane particle under treatment", "setting": "most courses of treatment", "value": "associated with a reduction in polymerase activity of the viron or Dane particle"}]}
